One compound from patent US9333195B2 (priority 1999, dated 2016) can be followed below.

The test deals with human muscarinic receptors Hm3 (Homo sapiens (Human), UniProt P20309). As to conditions: read-out: BINDING TO RECEPTOR M3 (IC50 nM).

For orientation: IC50 means the midpoint of a concentration-inhibition curve. For `CC(C)[N+]1(C)[C@@H]2CC[C@H]1C[C@@H](OC(=O)C(CO)c1ccccc1)C2` (stereo partly shown) [IPRATROPIUM, reference compound], the IC50 turned out to be 3 nM.
